We go through 2 compounds from PubChem BioAssay AID604 (The Scripps Research Institute Molecular Screening Center, 2007).

Protein sequences, listed by entry. Tags and fused reporters are not part of them.
UniProt O75116, whole entry: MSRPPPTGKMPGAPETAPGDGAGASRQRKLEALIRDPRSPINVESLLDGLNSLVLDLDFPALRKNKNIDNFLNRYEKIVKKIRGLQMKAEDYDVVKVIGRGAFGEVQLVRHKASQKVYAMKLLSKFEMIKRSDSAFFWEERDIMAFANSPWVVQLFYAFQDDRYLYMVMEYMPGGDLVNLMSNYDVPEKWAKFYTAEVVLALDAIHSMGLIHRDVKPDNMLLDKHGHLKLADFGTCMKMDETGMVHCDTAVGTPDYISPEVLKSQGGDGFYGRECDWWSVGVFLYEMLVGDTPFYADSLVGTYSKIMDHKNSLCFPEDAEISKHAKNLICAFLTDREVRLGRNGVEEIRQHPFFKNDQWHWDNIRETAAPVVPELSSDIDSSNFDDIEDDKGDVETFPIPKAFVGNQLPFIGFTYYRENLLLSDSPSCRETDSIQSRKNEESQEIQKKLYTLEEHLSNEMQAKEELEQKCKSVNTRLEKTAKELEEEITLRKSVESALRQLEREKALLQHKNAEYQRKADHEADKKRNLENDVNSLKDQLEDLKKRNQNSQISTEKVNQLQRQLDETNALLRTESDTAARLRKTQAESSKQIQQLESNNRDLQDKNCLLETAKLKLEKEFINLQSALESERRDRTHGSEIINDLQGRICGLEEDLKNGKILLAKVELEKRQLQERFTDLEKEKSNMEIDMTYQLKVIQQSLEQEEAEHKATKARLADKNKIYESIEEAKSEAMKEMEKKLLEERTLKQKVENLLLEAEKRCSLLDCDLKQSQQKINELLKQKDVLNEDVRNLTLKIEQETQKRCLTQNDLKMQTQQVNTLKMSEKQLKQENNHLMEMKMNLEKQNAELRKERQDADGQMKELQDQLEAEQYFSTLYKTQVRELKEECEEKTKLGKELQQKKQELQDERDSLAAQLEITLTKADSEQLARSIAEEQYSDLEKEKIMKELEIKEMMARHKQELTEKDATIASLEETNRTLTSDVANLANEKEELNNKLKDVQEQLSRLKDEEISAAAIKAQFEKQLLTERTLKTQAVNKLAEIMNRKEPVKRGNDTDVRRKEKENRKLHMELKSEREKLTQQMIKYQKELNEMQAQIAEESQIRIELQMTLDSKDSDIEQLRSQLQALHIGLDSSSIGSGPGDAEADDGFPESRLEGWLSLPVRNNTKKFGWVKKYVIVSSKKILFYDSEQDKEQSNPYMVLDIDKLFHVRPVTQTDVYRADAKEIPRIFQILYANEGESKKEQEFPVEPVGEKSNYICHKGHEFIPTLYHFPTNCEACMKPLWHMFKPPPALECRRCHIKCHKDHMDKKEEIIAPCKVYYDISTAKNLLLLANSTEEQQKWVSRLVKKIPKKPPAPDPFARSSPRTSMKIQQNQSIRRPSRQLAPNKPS

Only a part is listed here, and it is no random draw. Some results for these compounds are left out of this collection, so the calls shown say nothing about other tests. Activity calls are given as the source filed them.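 How the source made its calls: active means inhibition above the screen-wide mean inhibition plus 3 SD (cut at about 18% in these data); inactive means the rest.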

For the test, the target named is Rho-associated protein kinase 2 (Homo sapiens) (UniProt O75116). Briefly: inhibitors of human ROCK2 kinase, primary screen, biochemical, high-throughput, luminescence (AID 604).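 Further: plate controls were DMSO wells for no effect and Y-27632 control wells after no-enzyme background subtraction for full effect.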 Particulars: purified ROCK2, Kinase-Glo ATP depletion luminescence; at 6 µM; active compounds read high. For orientation: Kinase-Glo reads ATP consumption through a luciferase reaction.
Turning to `O=C(OC1CN2CCC1CC2)C(CO)(c1ccccc1)c1ccccc1` (configuration not stated), the inhibition was inactive: 4.7%.
Take `CN(C)c1cccc(C(=O)NCC2(N(C)C)CCCCC2)c1`: the inhibition was inactive: -2.9%.

By inhibition is commonly meant the drop in the measured response relative to a control, in per cent.
